Reference: EP0392745B1, “Immunoconjugates and prodrugs and their use in association for drug delivery” (CELLTECH LIMITED, priority 1989, dated 1990)

By UniProt entry, the sequences of proteins in these tests, tags left out. Residues count along the entry.
UniProt P62593, 24-286 limits assumed: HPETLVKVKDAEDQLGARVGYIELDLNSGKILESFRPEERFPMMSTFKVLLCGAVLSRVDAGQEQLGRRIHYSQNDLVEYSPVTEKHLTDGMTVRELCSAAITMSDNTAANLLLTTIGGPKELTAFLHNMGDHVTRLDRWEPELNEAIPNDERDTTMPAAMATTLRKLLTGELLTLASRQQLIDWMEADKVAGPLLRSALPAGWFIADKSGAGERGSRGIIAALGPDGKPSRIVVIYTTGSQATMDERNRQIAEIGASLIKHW
UniProt P05364, 21-381: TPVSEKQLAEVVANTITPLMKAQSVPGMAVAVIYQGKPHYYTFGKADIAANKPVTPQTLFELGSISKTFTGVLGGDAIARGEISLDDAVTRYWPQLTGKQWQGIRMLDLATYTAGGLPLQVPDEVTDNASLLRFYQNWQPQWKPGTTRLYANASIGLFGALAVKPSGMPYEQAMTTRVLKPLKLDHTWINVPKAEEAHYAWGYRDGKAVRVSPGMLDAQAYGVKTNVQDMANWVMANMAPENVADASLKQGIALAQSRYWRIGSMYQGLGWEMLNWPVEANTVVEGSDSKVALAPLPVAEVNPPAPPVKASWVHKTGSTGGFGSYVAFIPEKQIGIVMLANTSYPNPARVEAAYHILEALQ

Legend:
Test in all cases: β-Lactamase catalysed hydrolysis of prodrug, rate of hydrolysis (UV absorbance)
[1] = target: T1, β-lactamase (Bacillus cereus II) (Bacillus cereus, UniProt P04190); format: biochemical; conditions: B.cereus II β-lactamase 0.1-10 µg/ml, 0.1mg/ml prodrug in buffer, decrease in absorbance at 265nm
T1 sequence (P04190 31-257): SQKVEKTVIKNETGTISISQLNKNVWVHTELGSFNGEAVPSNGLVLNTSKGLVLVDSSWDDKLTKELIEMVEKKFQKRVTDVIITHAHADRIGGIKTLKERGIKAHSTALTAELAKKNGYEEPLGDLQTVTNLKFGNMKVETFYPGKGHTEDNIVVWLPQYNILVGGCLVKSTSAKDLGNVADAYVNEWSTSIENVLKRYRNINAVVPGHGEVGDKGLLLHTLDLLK

[2] = target: β-lactamase (E.coli RTEM) (Escherichia coli, UniProt P62593); conditions: E.coli β-lactamase 0.1-10 µg/ml, 0.1mg/ml prodrug in buffer; 265nm (6-mercaptopurine followed at 323nm)
[3] = target: β-lactamase (Enterobactor cloacae p99) (Enterobacter cloacae, UniProt P05364); format: biochemical; conditions: E.cloacae β-lactamase 0.1-10 µg/ml, 0.1mg/ml prodrug in buffer, decrease in absorbance at 265nm

Row | SMILES | Km [1] [µM] | kcat [1] | Km [2] [µM] | kcat [2] | Km [3] [µM] | kcat [3]
1 | CC(Cl)CN(CC(C)Cl)C(=O)OCC1=C(C(=O)O)N2C(=O)[C@@H](NC(=O)Cc3cccs3)[C@H]2SC1 (stereo partly drawn) [Example 4, 3-(Bis-2-chloropropylcarbamoyl)-7β-(2-acetamido)-3-cephem-4-carboxylic acid] | 54 | 3.4 5⁻¹ | 70 | 10.5 5⁻¹ |  | 
2 | CC(Br)CN(CC(C)Br)C(=O)OCC1=C(C(=O)O)N2C(=O)[C@@H](NC(=O)Cc3cccs3)[C@H]2SC1 (stereo partly drawn) [Example 5, 3-(Bis-2-bromopropylcarbamoyl)-7β-(2-acetamido)-3-cephem-4-carboxylic acid] |  |  |  |  | 40 | 120 5⁻¹
3 | O=C(Cc1cccs1)N[C@@H]1C(=O)N2C(C(=O)O)=C(CSc3ncnc4[nH]cnc34)CS[C@H]12 [Example 7, 3-(Purin-6-ylthiomethyl)-7β-(2-acetamido)-3-cephem-4 carboxylic acid] |  |  |  | 8.1 5⁻¹ |  | 
4 | O=C(Cc1cccs1)N[C@@H]1C(=O)N2C(C(=O)O)=C(COC(=O)N(CCCl)CCCl)CS[C@H]12 [Example 2, 3-(Bis-2-chloroethylcarbamoyl)-7β-(2-acetamido)-3-cephem-4-carboxylic acid] |  |  |  |  | 109 | 515 5⁻¹
5 | O=C(Cc1cccs1)N[C@@H]1C(=O)N2C(C(=O)O)=C(COC(=O)N(CCBr)CCBr)CS[C@H]12 [Example 3, 3-(Bis-2-bromoethylcarbamoyl)-7β-(2-acetamido)-3-cephem-4-carboxylic acid] | 63 | 3.5 5⁻¹ |  |  | 73 | 151 5⁻¹
